Assay: Measurement of crystal form stability (HPLC chemical purity, XRPD)
Type: physicochemical
Settings: placement time 10 days
Description: The X-ray powder diffraction pattern detection equipment and method of the present invention are as shown in the X-ray powder diffraction table in the instrument and analysis method. After the test compounds are placed under different temperature, humidity and light conditions for a period of time, the purity is tested. Purity testing method: Use high-performance liquid chromatography (HPLC) to detect the chemical purity of this product. Determine according to high performance liquid chromatography (“Chinese Pharmacopoeia” 2020 edition, Part IV, General Chapter 0512). Use octadecylsilane bonded silica gel as the filler (Waters XBridge Shield RP18 (4.6×250 mm, 5 μm)), 0.1% triethanolamine, 0.01 mol/L potassium dihydrogen phosphate solution (use phosphoric acid to adjust the pH value to 2.8) is mobile phase A, and acetonitrile is mobile phase B. The detection wavelength is 220 nm, the flow rate is 1.0 mL/min, and the column temperature is 35° C. The detection results are detailed in Table 29. XRPD characterization was performed on the samples after being placed under different temperature, humidity and light conditions for a period of time. The XRPD detection spectrum (in addition to the compounds in Table 28, the test substances also include the crystal form of the compound shown in Formula I) is basically the same.

COc1cc(N2CCC(N3CCN(C)CC3)CC2)c(C)cc1Nc1ncc(Br)c(Nc2ccc3nc(C4CC4)ccc3c2P(C)(C)=O)n1.O=C(O)C[C@H](O)C(=O)O [Crystal form J of the compound represented by formula III]
Chemical purity (%) 60° C.: 98.61%
